Our source for the activation of IL-2 secretion values is PubChem BioAssay AID504894 (National Center for Advancing Translational Sciences (NCATS), 2011).

SMILES strings stand for the structures. The entries are a selection whose mix differs from that of the whole data set. The source made the active and inactive calls. Calls follow the shape of the dose curve; as a rule, active = well fitted activation curve with a large enough effect; inconclusive = small, poorly fitted or top-dose-only effect, or another doubt; inactive = no such curve, though single readings can be large or run the other way.

The assay in a line: Activators of T cell receptors: qHTS campaign. Also: % of control where 0% means no effect. Conditions: primary human leukocytes, anti-CD3, IL-2 HTRF, 48 h; at 9.22 µM (top of the series). The text has this:
Normally activation of naive T cells requires two signals. 1. A signal through the T cell receptor (TCR) which provides antigen specificity to the response. 2. Signals through co-stimulatory molecules, which are necessary for proliferation, survival and cytokine production. In the absence of co-stimulatory signals T cells are not effectively activated, and may even be rendered anergic or unresponsive to subsequent signaling. This lack of costimulation has been shown in multiple model systems to be a major factor in the limited strength and effectiveness of anti-tumor T cell responses. The goal of this project is to identify small molecule compounds that will stimulate T cell activation in the presence of TCR signaling but in the absence of co-stimulatory signals, thereby allowing activation of naive T cells in the absence of co-stimulation. Identification of such compounds would have clear experimental and clinical applications in instances where desirable antigen-specific immune responses are not generated due to a lack of co-stimulation, for example in the generation of anti-tumor responses. […] The screen will be carried out using a novel homogeneous time resolved fluorescence energy transfer (HTRF) assay to measure production of the cytokine IL-2 by activated T cells and will be tested against the NIH Molecular Libraries Small Molecule Repository (MLSMR). […]
A general note: In qHTS, concentration-response curves come from the screen itself.
Regarding `CN(C)CCOC(=O)C(O)(c1ccccc1)C1CCCCC1` (configuration not stated), the activation of IL-2 secretion was inactive: 2.73%.

As for `CP(=O)(Nc1ccc(Cl)cc1)Oc1ccc(F)cc1` (configuration not stated), the activation of IL-2 secretion was inactive: -2.3%.
